Values quoted from earlier work, collected in PMC10304291, “THC-Reduced Cannabis sativa L.—How Does the Solvent Determine the Bioavailability of Cannabinoids Given Orally?” (Nutrients, 2023).

Parameters: method as in PMID 21796370
Details: Cremophor-based studies; cited from earlier work

For `C=C(C)[C@@H]1CCC(C)=C[C@H]1c1c(O)cc(CCCCC)cc1O` [CBD, cannabidiol], the brain/whole-blood ratio is listed as 2.64.
